2 substances from patent US20240368212A1, “SELECTIVE ISONITRILE INHIBITORS OF CYTOCHROME P450 SUBTYPES” (priority 2021, published 2024) can be followed below.

Chains of the proteins cited; added tags and fusions are not shown.
UniProt P08684, whole entry: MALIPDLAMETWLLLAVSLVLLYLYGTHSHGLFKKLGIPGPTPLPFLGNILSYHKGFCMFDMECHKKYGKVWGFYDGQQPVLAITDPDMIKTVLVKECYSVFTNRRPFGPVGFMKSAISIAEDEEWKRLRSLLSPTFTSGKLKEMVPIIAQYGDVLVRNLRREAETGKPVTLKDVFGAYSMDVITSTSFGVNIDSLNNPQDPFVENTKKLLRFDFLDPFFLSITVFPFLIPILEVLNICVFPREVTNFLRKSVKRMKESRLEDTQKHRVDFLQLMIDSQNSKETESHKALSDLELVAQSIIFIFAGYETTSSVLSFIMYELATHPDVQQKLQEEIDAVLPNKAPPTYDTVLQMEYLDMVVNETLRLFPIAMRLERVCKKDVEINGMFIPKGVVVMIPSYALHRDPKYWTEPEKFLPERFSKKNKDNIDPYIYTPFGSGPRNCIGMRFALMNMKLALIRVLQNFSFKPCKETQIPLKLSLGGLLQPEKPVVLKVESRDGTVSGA
UniProt P10635, whole entry: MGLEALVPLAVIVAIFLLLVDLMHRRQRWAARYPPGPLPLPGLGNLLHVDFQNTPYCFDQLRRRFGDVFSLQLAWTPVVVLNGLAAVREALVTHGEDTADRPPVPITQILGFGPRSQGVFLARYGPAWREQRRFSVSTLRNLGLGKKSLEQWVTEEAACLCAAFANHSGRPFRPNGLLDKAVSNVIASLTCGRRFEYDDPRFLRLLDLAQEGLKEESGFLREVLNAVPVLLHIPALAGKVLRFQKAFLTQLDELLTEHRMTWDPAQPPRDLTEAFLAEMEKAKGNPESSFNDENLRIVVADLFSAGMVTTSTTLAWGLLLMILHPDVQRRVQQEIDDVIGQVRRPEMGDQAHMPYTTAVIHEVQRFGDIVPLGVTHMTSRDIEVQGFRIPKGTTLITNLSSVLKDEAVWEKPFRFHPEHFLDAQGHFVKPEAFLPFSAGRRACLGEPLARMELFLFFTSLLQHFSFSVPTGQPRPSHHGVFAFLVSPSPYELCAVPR

By Kd is commonly meant the equilibrium constant for the complex coming apart.

Several values for one entry are separate records, joined by “and”; a condition that tells them apart may be missing. Identical values can stand only once.

For data set [1], the target named is T1, CYP3A4 (Homo sapiens, UniProt P08684). The protocol:
(§1) Ligand binding assays. (Adapted from DeVore, N M, et al. (2009). Drug Metabolism and Disposition, 37(6), 1319-1327.) Ligand interaction with the heme iron was evaluated by titrating ligands into a cuvette containing purified CYP17A1, CYP2D6, or CYP3A4 and measured using a UV-visible scanning spectrophotometer. […] Ligands dissolved in DMSO were added to the sample cuvette and an equal volume of DMSO to the reference cuvette. Difference spectra were recorded from 300-500 nm after equilibration of enzyme and ligand. Binding to the enzyme was measured as the difference in maximal and minimal absorbance: A387-A419 for pregnanolone and 3-formyl pregnanolone, and A435-A393 for 3-formyl pregnanolone-20-isonitrile with CYP17A1; A434-A414 for 3-formyl pregnanolone-20-isonitrile with CYP3A4 and CYP2D6. […] All data fitting was accomplished using GraphPad Prism 9.

For data set [2], the target named is T1, CYP3A4. The following applies: reduced with sodium dithionite, re-oxidized in air.
A further data set deals with CYP2D6 (Homo sapiens, UniProt P10635). The following applies: read-out: Kd (dissociation constant); CYP2D6 1.0 μM. How it is done:
as §1

“3b-formyl-5a-pregnanalone [reference compound]”: the “Kd for CYP3A4, fold higher than 20-(R)-16” value at CYP3A4 [1] (parent steroid vs isonitrile) was found to be 10 fold.
As to “3β-formyl-(R)-(20-isonitrilo)pregnane [20-(R)-16]”, the “stability of the reduced isonitrile complex” value at CYP3A4 [2] was “clean two-state conversion between the reduced and oxidized complexes with the isonitrile still bound”. The dissociation constant (Kd) at CYP3A4 [1] (read-out: Kd (dissociation constant), CYP3A4 1.0 μM) was 300 nM and ~300 nM; on CYP2D6, 250 nM and ~250 nM. On CYP3A4 [1] (selectivity CYP3A4 vs CYP17A1), the “dissociation constant for CYP3A4, fold higher than for CYP17A1” value is given as “at least 3 fold”.
